In ChEMBL document CHEMBL5523765, “Peptidic Boronic Acid Plasmodium falciparum SUB1 Inhibitors with Improved Selectivity over Human Proteasome” (J Med Chem, 2024):

Assay: Selectivity ratio IC50 for human 20s proteasome beta5 subunit mediated chymotrypsin-like activity to IC50 for Plasmodium falciparum SUB1

SMILES | Ratio IC50
CC(=O)N[C@H](C(=O)N[C@H](C(=O)NCC(=O)N[C@@H](C)B(O)O)C(C)C)C1CCCC1 | 5.7
CC(=O)N[C@H](C(=O)N[C@H](C(=O)NCC(=O)N[C@@H](C)B(O)O)[C@@H](C)O)C1CCCC1 | 3.8
